Data as given in ChEMBL document CHEMBL1147248, “A new acylated oleanane triterpenoid from Couepia polyandra that inhibits the lyase activity of DNA polymerase beta” (J Nat Prod, 2003).

Target: DNA polymerase beta (Homo sapiens, UniProt P06746)
Experiment: Inhibition of DNA polymerase beta lyase activity by deoxyribose phosphate excision assay

Compound: C=C(C)[C@@H]1CC[C@]2(C(=O)O)CC[C@]3(C)[C@H](CC[C@@H]4[C@@]5(C)CC[C@H](O)C(C)(C)[C@@H]5CC[C@]43C)[C@@H]12 [BETULINIC ACID]
- IC50: 43.6 µM
